From patent US8318898B2, “Synthetic peptides for use as inhibitors of neurotransmitter secretion and as inducers of cellular relaxation” (Universite de Lausanne, priority 2005, dated 2012)

The chains behind the UniProt entries cited, without tags or fusion partners. Residues count along the entry.
UniProt P09958, 108-794: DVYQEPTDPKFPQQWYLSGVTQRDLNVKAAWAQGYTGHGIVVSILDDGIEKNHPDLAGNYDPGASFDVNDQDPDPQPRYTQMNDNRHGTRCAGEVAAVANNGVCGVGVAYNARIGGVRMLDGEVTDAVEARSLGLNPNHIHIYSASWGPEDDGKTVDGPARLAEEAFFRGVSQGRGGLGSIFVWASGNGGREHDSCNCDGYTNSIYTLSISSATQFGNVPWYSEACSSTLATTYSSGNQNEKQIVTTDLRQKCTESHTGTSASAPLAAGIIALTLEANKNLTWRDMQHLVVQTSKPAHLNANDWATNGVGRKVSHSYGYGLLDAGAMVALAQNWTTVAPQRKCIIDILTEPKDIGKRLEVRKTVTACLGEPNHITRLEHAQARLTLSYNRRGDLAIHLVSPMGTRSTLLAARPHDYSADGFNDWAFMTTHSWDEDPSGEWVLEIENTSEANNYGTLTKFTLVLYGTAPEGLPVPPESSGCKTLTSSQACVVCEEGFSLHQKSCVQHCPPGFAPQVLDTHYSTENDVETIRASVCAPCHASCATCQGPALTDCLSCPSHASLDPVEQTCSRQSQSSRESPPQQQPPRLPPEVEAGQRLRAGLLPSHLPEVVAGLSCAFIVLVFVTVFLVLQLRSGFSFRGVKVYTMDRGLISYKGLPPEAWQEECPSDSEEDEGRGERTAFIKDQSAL
UniProt P23377, 108-793: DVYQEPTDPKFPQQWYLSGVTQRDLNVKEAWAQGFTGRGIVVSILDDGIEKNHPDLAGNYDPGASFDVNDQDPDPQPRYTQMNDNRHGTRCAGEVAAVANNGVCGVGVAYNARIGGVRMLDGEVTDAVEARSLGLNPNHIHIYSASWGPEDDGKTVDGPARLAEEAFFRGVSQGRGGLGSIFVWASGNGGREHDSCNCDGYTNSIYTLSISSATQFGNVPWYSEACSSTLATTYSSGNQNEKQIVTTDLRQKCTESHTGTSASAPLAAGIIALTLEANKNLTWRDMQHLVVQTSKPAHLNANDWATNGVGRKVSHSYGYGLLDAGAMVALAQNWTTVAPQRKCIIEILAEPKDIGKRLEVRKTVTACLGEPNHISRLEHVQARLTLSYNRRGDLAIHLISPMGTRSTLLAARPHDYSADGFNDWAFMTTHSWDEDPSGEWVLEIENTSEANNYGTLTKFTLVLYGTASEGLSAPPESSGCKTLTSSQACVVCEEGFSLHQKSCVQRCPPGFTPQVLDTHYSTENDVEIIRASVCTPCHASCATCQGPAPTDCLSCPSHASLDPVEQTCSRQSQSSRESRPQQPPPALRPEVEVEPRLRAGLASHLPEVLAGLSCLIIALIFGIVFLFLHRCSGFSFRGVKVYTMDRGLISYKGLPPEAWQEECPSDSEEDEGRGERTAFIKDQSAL

Legend:
[1] = tested on: smooth muscle cell line (A7r5); assay: Cell contraction/relaxation on silicon sheet, smooth muscle cells; type: cell-based
Procedure: Lung biopsy was obtained from a Sprague Dawley rat, divided in small tissue slices, placed in culture dishes, and maintained then in organ culture in Dulbecco's modified Eagle's medium (GibcoBRL, Life Technologie) containing 10% decomplemented fetal bovine serum (FBS) supplemented with 100 U/ml penicillin, 100 μg/ml streptomycin, 4 mM I-glutamine, at 37° C., in 5% CO2. Cells were maintained during 2-3 weeks (2-8 passages), replacing medium frequently. At confluence, cells were detached from the culture dish with 0.125% trypsin-EDTA mixture (Sigma) for 10 minutes at 37° C., resuspended in complete medium, and seeded over silicon-coated tissue culture dishes at 3.5×10^3 cells/cm^2. One to two days after, cells were treated with the appropriate peptide at 10 or 50 μM, and peptide-induced cell contraction/relaxation effect followed for 1-3 hours by live videomicroscopy. A smooth muscle cell line (A7r5) kept in similar conditions was also used to follow the peptide-induced effects on these cells grown over silicon sheet.
Live videomicroscopy was performed under controlled temperature and CO2 conditions using a Zeiss Axiovert 200M (Zeiss, Oberkochem, Germany), equipped with a spinning disk Nipkow confocal head (Yokogawa CSU10), Photometrics CoolSNAP-HQ CCD camera and Metamorph 6.0 acquisition software (Visitron Systems, Puchheim, Germany). […]

rat lung fibroblast (LF) = assay: Cell contraction/relaxation on wrinkling silicone substrate, live videomicroscopy; type: cell-based; conditions: 10 μM and 50 μM
Procedure: To study the effect(s) of the peptides on muscle cells, which associate with neurosecretory cells at neuromuscular junctions, peptides were cultured with rat lung fibroblast (LF) grown over wrinkling substrate (silicon) which can mimic the effects of contraction. These cells have a myofibroblastic phenotype, e.g., production of TGF-β, which make them suitable for cellular contraction/relaxation studies.
Wrinkling silicone substrates were prepared as essentially described previously (Harris, et al., Science. 208:177-179, 1980; Hinz, et al., Mol Biol Cell. 12:2730-41, 2001). Briefly, 50 μl of silicone (poly dimethyl siloxane; 30.000 centistokes, Dow Corning, Midland, Mich.) were deposited onto a 35 mm round glass coverslip at the bottom of a self-made observation chamber, which was centrifuged at 1.000 rpm for 2 minutes to spread the viscous fluid. The silicone surface was then crosslinked by passing it through a Bunsen flame; a flaming time of 1 second produced a surface stiffness that restricted wrinkle formation to fibroblasts with high contractile force (Hinz et al., supra). The polymerized silicone surface was finally coated with 10 μg/ml collagen type I (Sigma) for 2 hours at 37° C. Lung fibroblast cells were seeded at a density of 3.5×10^3 cells/cm^2 and cultured for 1-2 days before the experiment. […]

PC12-ES cells = assay: Evoked neurotransmitter secretion by undifferentiated PC12-ES cells, furin inhibitor and arginine rich peptides; type: cell-based, rat; conditions: potassium 80 mM, 15 minutes
Recombinant furin = Recombinant furin (Homo sapiens, UniProt P09958); assay: biochemical; type: biochemical
Procedure: To determine if the peptides described herein have an effect on the activity of PC enzymes which are involved in a condition or disorder such as fibrosis, the effect of the peptides on furin activity in vitro was measured as percent inhibition of cleavage of the furin substrate fluorogenic t-butyloxycarbonyl (Boc)-RVRR-7-amino-4-methylcoumarin (MCA).
All in vitro enzyme studies were performed at room temperature in a final volume of 50-100 μl in 96-well flat-bottom black plates. The buffer consisted of 100 mM HEPES, 1 mM CaCl2, 0.5% TritonX-100, and 1 mM 2-β-mercaptoethanol pH 7.5. Assays were performed using Boc-RVRR-MCA as fluorogenic substrate at 100 μM. Recombinant furin (0.8 U of activity) was incubated with Boc-RVRR-MCA in the presence or absence of varying concentrations of synthetic peptides D-9Rac/am (SEQ ID NO. 15), L-Bel1 (SEQ ID NO. 3), or L-9K (SEQ ID NO. 6). One unit of activity is defined as the amount of furin that can release 1 μmol of MCA from the fluorogenic Boc-RVRR-MCA per min at 30° C. The release of highly fluorescent 7-amino 4-methyl coumarin (MCA) from the Boc-RVRR-MCA was monitored by a spectrofluorometer instrument at excitation and emission wavelengths of 370 nm/460 nm. […]

lung fibroblasts = assay: Stressed collagen lattice contraction assay; type: cell-based, rat; conditions: peptide 60 minutes before gel release; compared to control gels and L-9K treated gels; preliminary
furin = target: T1, furin (Rattus norvegicus, UniProt P23377); type: biochemical
T1 construct: Furin activity was constitutively detected in PC12-ES cells; endogenous in cells; host or cells: PC12-ES cells (lysate)
Procedure: To monitor the intracellular furin activity, 80% confluent PC12-ES cells were washed twice with ice-cold phosphate-buffered saline (PBS1×) by centrifugation at 800×g for 5 minutes at 4° C., resuspended in 100 mM HEPES, 1 mM CaCl2, 0.5% TritonX-100, and 1 mM 2-β-mercaptoethanol, pH 7.5, sonicated 6 times at 4° C. for 10 seconds, and then centrifuged at 8000×g for 20 minutes at 4° C. The protein concentration in the samples was determined using a bicinchonic acid protein assay kit (Pierce Chemical Co.).
Intracellular furin activity was measured with a furin-specific fluorogenic substrate, t-butyloxycarbonyl (Boc)-[…]-7-amino-4-methylcoumarin (MCA). Briefly, the cell lysate (20 μg-60 μg of protein) prepared as described above was incubated with 100 μM Boc-RVRR-MCA in a 96-well flat-bottom black plate for at least 6 hours at room temperature and fluorescence measured by excitation at 365 nm and emission at 450 nm.

PC-12 cells = assay: Actin cytoskeleton organization, phalloidin-TRITC staining; type: cell-based, rat
Procedure: Slides with PC-12 cells were prepared as stated previously for localization studies. Briefly, cells were exposed to FITC-labeled or unlabeled peptides, at various concentrations, for 30 minutes, fixed and then permeabilized. Subsequently, F-actin was fluorescently labeled with phalloidin-Tetramethyl Rhodamine Iso-Thiocyanate (TRITC) (Sigma Aldrich) conjugate, diluted on saponin buffer (0.25 μg/ml), and nuclear staining with DAPI dihydrochloride (Sigma Aldrich) (0.02 μg/ml), at room temperature for maximum 30 minutes. Finally, slides were mounted and sealed, and stored at 4° C. protected from light. The effect of the peptides to actin polymerization was analyzed by confocal microscopy, as described before.

SMILES: CC(=O)NCC(=O)N[C@H](Cc1ccc(O)cc1)C(=O)NCC(=O)N[C@H](CCCNC(=N)N)C(=O)N[C@H](CCCNC(=N)N)C(=O)N[C@H](CCCNC(=N)N)C(=O)N[C@H](CCCNC(=N)N)C(=O)N[C@H](CCCNC(=N)N)C(=O)N[C@H](CCCNC(=N)N)C(=O)N[C@H](CCCNC(=N)N)C(=O)N[C@H](CCCNC(=N)N)C(=O)N[C@H](CCCNC(=N)N)C(=O)NCC(N)=O [D-9Rac/am]
- relaxing effect on smooth muscle cells [1]: same effect
- relaxing effect on lung myofibroblasts on silicon substrate (rat lung fibroblast (LF)): slow but constant loss of silicon substrate wrinkles and cell detachment
- inhibition of evoked neurotransmitter secretion by PC12-ES cells (PC12-ES cells; 10 μM): 52.4%
- inhibition of evoked neurotransmitter secretion by PC12-ES cells (PC12-ES cells; 100 μM): 76.2%
- concentration for complete blockade of cleavage of Boc-RVRR-MCA by furin (Recombinant furin): 0.7 µM
- inhibition of in vitro furin activity (in words) (Recombinant furin; Boc-RVRR-MCA 100 μM as substrate): inhibited to completion
- Ki (Recombinant furin; furin, Boc-RVRR-MCA substrate, read-out: Ki(app)): 170 nM
- myofibroblast-mediated collagen gel contraction (lung fibroblasts): decrease
- concentration needed to block the intracellular furin activity measured in cell lysate (furin): 100 µM
- effect on actin content and organization at higher concentration (PC-12 cells; 100 μM): almost lost
- effect on actin content and organization (PC-12 cells; 2 to 10 μM, 30 minutes, labeled or unlabeled): decreased actin content and organization
